Laboratory results from PMC9065009, “Mechanistic insights of ABC importer HutCD involved in heme internalization by Vibrio cholerae” (Scientific Reports, 2022).

Tested on: Nc1ncnc2c1ncn2[C@@H]1O[C@H](COP(=O)(O)OP(=O)(O)OP(=O)(O)O)[C@@H](O)[C@H]1O
Assay: purified protein
Conditions: 50 mM Tris-HCl pH 8.0, 300 mM NaCl, 5 mM MgCl2, 298 K, 2.5 μM protein, 25.0 °C

Q: With “HutD (Vibrio cholerae O1 biovar El Tor str. N16961)” as the substance, how does the Km read?
A: 74.15 ± 9.46 µM
